Test: Solubility in water, saturated suspension filtered and measured by HPLC
Type: physicochemical
Conditions: shaken and sonicated about 5-10 min at about 50° C., filtered 0.2 μm
Protocol: A compound was weighed and water was added to the compound such that the resulting concentration of the compound was about 100 mg/mL. The mixture was then shaken well and sonicated (about 5-10 min at about 50° C.). If the added amounts of the compound were totally solubilized, more amounts of the compound were added to the solution and the mixture was shaken well and sonicated until a suspension was achieved. The suspension was then filtered through a 0.2 μm filter. The filtered solution was diluted with DMSO. Then the mixture was analyzed by HPLC to determine the concentration of the compound.
The HPLC system consisted of the HP 1100 Model (Agilent, Wilmington, Del.) equipped with a model 1100 quaternary pump, a model 1100 autosampler, a model 1100 Diode-Array Detector for UV detection at 280 nm. HPLC analysis was performed using a gradient mobile phase consisting of acetonitrile-water containing 0.1% formic acid. Mobile phases were degassed and filtered through a solvent filtration apparatus and pumped at a constant rate of 1.0 mL/min. Separation was made on an XTerra MS C18 analytical column, 4.6 mm i.d.×150 mm, (Waters Corp., Milford, Mass., USA) fitted with a pre-column filter (XTerra MS C18, 3.9 mm×20 mm). The column was maintained at 40° C.

Substance: Calcium; 2-(N′-methyl-N′-thiobenzoyl-hydrazinocarbonyl)-1-(methyl-thiobenzoyl-hydrazono)-ethanolate [Compound 9]
- Solubility in water: 18.9 mg/mL

— patent US8048925B2, “Bis(thio-hydrazide amide) salts for treatment of cancers” (Synta Pharmaceuticals Corp., priority 2004, dated 2011)
